The values that follow are results of earlier work, collected in paper PMC7430049 (Journal of medicinal chemistry, 2019).

This data set addresses T1, G9a (Homo sapiens, UniProt Q96KQ7).
T1 sequence (Q96KQ7 913-1193 limits assumed): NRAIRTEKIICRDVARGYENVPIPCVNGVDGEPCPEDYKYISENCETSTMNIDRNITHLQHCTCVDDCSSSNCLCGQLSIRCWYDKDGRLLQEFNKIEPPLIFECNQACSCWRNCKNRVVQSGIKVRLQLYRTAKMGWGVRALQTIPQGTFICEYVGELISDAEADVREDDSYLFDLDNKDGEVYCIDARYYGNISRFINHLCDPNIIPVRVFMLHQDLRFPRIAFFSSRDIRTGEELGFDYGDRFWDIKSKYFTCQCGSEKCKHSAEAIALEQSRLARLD
Particulars: read-out: G9a IC50 (ECSD assay); ECSD assays; cited from earlier work.

For the compound `COc1cc2c(NC3CCN(C)CC3)nc(N3CCCN(C)CC3)nc2cc1OCCCN(C)C` [compound 4], the IC50 is 43 nM.

One may read the IC50 as the concentration that gives 50% inhibition.
